The values that follow come from ChEMBL document CHEMBL6109111, “Structure-activity relationship analysis of meta-substituted N-cyclopropylmethyl-nornepenthones with mixed KOR/MOR activities” (Eur J Med Chem, 2025).

Sequences of proteins named here, by UniProt entry; tags and fusion partners are left off.
UniProt P33535, whole entry: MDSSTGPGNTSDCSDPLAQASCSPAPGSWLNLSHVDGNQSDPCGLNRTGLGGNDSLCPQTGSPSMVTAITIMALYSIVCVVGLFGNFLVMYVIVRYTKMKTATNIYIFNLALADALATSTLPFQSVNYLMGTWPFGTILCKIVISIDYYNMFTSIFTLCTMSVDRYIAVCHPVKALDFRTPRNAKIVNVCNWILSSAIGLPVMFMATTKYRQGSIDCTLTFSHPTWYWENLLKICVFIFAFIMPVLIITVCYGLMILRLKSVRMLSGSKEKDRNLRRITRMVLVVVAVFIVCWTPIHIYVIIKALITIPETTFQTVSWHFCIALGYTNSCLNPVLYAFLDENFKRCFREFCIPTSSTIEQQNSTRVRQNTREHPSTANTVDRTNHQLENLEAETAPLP
UniProt P33533, whole entry: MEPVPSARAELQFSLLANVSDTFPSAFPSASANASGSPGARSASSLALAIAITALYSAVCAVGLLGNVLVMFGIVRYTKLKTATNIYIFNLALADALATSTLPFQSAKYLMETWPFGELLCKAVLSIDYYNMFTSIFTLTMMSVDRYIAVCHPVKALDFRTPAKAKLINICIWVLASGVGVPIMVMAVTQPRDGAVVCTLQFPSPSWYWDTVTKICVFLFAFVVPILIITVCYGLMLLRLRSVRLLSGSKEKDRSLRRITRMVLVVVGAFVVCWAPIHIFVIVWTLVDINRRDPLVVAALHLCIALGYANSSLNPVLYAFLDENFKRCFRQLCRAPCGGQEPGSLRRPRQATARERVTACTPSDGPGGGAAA
UniProt P41145, whole entry: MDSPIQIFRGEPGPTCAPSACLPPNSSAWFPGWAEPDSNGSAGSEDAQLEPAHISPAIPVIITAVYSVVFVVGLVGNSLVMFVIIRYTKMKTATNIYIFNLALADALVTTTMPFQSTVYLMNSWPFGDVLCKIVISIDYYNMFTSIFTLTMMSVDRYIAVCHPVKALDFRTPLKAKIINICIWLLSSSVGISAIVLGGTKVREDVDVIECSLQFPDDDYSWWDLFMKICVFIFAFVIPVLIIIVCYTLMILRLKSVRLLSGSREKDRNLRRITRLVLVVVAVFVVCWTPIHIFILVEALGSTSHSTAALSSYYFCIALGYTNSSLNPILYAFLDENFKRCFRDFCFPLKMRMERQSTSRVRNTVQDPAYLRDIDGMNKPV

For experiment [1], the target named is Mu-type opioid receptor (Rattus norvegicus, UniProt P33535). Nature of the experiment: Displacement of [3H]-DAMGO from rat MOR expressed in CHO cell membrane assessed as inhibition constant incubated for 30 mins by liquid scintillation counting method. For orientation: In a radioligand displacement assay an active substance lowers the binding of a labelled ligand.

Experiment [2] has as its target Delta-type opioid receptor (Rattus norvegicus, UniProt P33533). In words: Displacement of [3H]-DPDPE from rat DOR expressed in CHO cell membrane assessed as inhibition constant incubated for 30 mins by liquid scintillation counting method.
In experiment [3] the target is Kappa-type opioid receptor (Homo sapiens, UniProt P41145). Nature of the experiment: Displacement of [3H]-U69593 from human KOR expressed in CHO cell membrane assessed as inhibition constant incubated for 30 mins by liquid scintillation counting method.

Usually Ki stands for the equilibrium dissociation constant of an inhibitor or competing ligand from its target.

With `COc1ccc2c3c1O[C@H]1[C@@]4(OC)C=C[C@@]5(C[C@@H]4C(=O)c4cccc(NC(C)=O)c4)[C@@H](C2)N(CC2CC2)CC[C@]315`, the results for the Ki in experiment [1], in experiment [2] and in experiment [3] were 2.2 nM, 184 nM and 26.6 nM, respectively.

Turning to `COc1ccc2c3c1O[C@H]1[C@@]4(OC)C=C[C@@]5(C[C@@H]4C(=O)c4cccc(NC(=O)C6CC6)c4)[C@@H](C2)N(CC2CC2)CC[C@]315`, the inhibitory constant (Ki) came out at 10.3 nM in experiment [1], 50.8 nM in experiment [2] and 141 nM in experiment [3].

`COc1ccc2c3c1O[C@H]1[C@@]4(OC)C=C[C@@]5(C[C@@H]4C(=O)c4cccc(N)c4)[C@@H](C2)N(CC2CC2)CC[C@]315`: the Ki in experiment [1] stood at 2.3 nM; in experiment [2], 330 nM; in experiment [3] it was 13.6 nM.
